Test system: CD4+ T cell clone 1D6
Assay: CD4+ T cell clone activation assay, NY-ESO-1 118-143 constructs, autologous LCL as APC
Format: cell-based, human
Conditions: LCL pulsed with construct; 147 tested +/−P3C; 116 and 115 titratable (FIG. 13)
Protocol: Human CD4+ and CD8+ T cell clones were maintained at a concentration of 1-3×10^6/ml in RPMI 1640 supplemented with Glutamax, Penicillin/Streptomycin and 5% v/v human serum (“RS5”, all reagents from Life Technologie). Media was refreshed 50% v/v twice weekly. RS5 for CD4+ T cell clones was supplemented with IL-7 and IL-21, and RS5 for CD8+ T cell clones was supplemented with IL-7+IL-15 (all cytokines from PeproTech, used at a final concentration of 5 ng/ml).
Epstein-Barr Virus (“EBV”)-producing B95-8 MM cells were grown in RPMI 1640 supplemented with Glutamax, Penicillin/Streptomycin and 10% v/v fetal bovine serum (“RF10”, all reagents from Invitrogen) in T75 flasks (BD Biosciences). EBV-containing medium was collected and centrifuged to pellet non-adherent cells, and the EBV-containing supernatant then filter-sterilised (0.22 μm). 10×10^6 donor Peripheral Blood Mononuclear Cells (“PBMC”) were suspended in 1.5 ml RF10 in aT25 flask (BD Biosciences). […] Flasks were monitored for outgrowth of B cell LCL, typically over 4-6 weeks, with transfer to a T75 flask (BD Biosciences) when required. […]
Data acquisition was performed using a BD FACSAria II with FACSDiva software, and data analysis was performed using FlowJo software (Treestar). Data were presented as the median fluorescence intensity (MFI)+SD of CD25 and CD134 expression on live clonal cells. […]

**Q.** “p121-138: NY-ESO-1 residues 121-138 peptide, pulsed on LCL at 1 μM as positive control [reference compound]” was tested. Which “response of clone 1D6” value did it give?
**A.** responds well

Reference: US10576144B2, “Amino acid and peptide conjugates and conjugation process” (AUCKLAND UNISERVICES LIMITED, priority 2014, dated 2020)
